Source: US20220204649A1 (SYSMEX, published 2022)

Legend:
[1] = target: T1, HER2 (UniProt P04626, in part); assay: SPR (Biacore 8K), as in Example 1
T1 construct: also called antigen of the anti-HER2 antibody
Protocol: (§1) Affinity of the prepared variants was measured using Biacore (registered trademark) 8K (GE Healthcare) in the same manner as in Example 1.

[2] = target: T1, HER2; assay: SPR (Biacore 8K), Example 3, as in Example 1
Protocol: as §1

B1: 82B, 83, 84 variant of humanized anti-HER2 antibody (Fab) (Fab, V domains shown)
VH: [about 120 residues not printed]
VL: DIQMTQSPSSLSASVGDRVTITCRASQDVNTAVAWYQQKPGKAPKLLIYSASFLYSGVPSRFSGSRSGTDFTLTISSLQPEDFATYYCQQHYTTPPTFGQGTKVEIKR
notes: Kabat 83 is already Arg in the wild-type heavy chain; also called Heavy chain 82B, 83, 84 variant
Kd [1]: 0.0278 nM | Kd [2]: 0.0606 nM
